For this assay, the target named is Flk-1 (Homo sapiens, UniProt P35968). Briefly: Phospho-Flk1 phosphotyrosine ELISA (cytoblot) on whole U251 glioblastoma cells; Flk1 kinase inhibition. On the technique in general: ELISA stands for enzyme-linked immunosorbent assay.

Sequences of proteins named here, by UniProt entry; tags and fusion partners are left off. Residues count along the entry.
UniProt P35968, 20-1356: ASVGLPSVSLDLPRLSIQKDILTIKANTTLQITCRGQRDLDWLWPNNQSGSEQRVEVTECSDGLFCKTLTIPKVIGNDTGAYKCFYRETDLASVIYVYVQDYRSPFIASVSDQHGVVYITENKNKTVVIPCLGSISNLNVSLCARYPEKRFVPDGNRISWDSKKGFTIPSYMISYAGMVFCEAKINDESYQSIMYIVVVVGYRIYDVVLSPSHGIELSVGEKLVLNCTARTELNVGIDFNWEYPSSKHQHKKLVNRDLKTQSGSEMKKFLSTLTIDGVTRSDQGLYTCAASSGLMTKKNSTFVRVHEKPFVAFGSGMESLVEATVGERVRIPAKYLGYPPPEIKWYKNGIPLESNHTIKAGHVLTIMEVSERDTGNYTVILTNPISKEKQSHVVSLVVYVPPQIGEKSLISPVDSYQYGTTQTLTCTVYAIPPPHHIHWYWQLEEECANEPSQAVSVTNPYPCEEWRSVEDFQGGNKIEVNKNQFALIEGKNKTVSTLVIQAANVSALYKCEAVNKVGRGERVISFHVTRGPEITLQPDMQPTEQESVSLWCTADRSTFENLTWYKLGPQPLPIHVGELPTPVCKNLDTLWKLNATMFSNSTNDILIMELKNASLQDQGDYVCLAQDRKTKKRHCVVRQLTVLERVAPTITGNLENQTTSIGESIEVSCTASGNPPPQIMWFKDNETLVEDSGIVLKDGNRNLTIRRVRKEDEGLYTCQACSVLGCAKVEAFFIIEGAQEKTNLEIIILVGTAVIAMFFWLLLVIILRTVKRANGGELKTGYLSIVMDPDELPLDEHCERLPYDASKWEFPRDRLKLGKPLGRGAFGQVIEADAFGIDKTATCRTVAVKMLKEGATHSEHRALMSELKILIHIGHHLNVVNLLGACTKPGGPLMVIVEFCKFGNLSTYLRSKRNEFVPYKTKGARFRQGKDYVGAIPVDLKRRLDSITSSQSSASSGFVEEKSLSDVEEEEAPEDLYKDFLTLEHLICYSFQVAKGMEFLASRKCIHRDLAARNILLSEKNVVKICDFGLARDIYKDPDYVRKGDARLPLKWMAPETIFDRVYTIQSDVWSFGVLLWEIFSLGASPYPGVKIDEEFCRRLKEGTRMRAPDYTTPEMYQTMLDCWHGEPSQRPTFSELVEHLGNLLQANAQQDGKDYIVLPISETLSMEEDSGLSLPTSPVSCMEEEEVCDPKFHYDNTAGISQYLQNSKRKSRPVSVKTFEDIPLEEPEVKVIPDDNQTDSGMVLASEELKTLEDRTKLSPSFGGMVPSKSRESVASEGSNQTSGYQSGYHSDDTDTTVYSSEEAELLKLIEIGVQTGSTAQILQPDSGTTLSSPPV

As usually defined, the IC50 is the concentration that inhibits the measured activity by half. A low value points to greater potency.

For `Nc1nc(Nc2cccc(Br)c2)c2cc(Cc3ccccc3)[nH]c2n1` [YJ/AG 156], the IC50 was over 50 µM.

These data come from US6770652B2, “Multiple acting anti-angiogenic and cytotoxic compounds and methods for using the same” (Duquesne University of the Holy Ghost, priority 2001, dated 2004).
